The results in this text go back to ChEMBL document CHEMBL1131470, “Inhibition of human O6-alkylguanine-DNA alkyltransferase and potentiation of the cytotoxicity of chloroethylnitrosourea by 4(6)-(benzyloxy)-2,6(4)-diamino-5-(nitro or nitroso)pyrimidine derivatives and analogues” (J Med Chem, 1998).

The experiment has as its target T1, Methylated-DNA--protein-cysteine methyltransferase (Homo sapiens, UniProt P16455).
T1 sequence (P16455 whole entry): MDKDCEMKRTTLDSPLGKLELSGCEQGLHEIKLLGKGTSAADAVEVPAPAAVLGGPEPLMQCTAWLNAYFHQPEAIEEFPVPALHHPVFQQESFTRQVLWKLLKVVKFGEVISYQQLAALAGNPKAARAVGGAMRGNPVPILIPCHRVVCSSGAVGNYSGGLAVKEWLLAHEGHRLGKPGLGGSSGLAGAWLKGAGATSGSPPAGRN
Nature of the experiment: In vitro inhibitory activity against human O6-alkylguanine-DNA alkyltransferase (AGAT).

Each structure is given as a SMILES string.

On to `Nc1nc(OCc2ccccc2)c2[nH]cnc2n1` [6-O-BENZYLGUANINE], for which it took 2600 nM to reach half-maximal inhibition (IC50).

As usually defined, the IC50 is the concentration needed to halve the response being measured. A lower IC50 goes with inhibition by little substance.
